Test results published in US9346798B2, “Dihydrobenzoxazine and tetrahydroquinoxaline sodium channel inhibitors” (AMGEN INC., priority 2012, dated 2016).

Protein sequences, listed by entry. Tags and fused reporters are not part of them.
UniProt Q15858, whole entry: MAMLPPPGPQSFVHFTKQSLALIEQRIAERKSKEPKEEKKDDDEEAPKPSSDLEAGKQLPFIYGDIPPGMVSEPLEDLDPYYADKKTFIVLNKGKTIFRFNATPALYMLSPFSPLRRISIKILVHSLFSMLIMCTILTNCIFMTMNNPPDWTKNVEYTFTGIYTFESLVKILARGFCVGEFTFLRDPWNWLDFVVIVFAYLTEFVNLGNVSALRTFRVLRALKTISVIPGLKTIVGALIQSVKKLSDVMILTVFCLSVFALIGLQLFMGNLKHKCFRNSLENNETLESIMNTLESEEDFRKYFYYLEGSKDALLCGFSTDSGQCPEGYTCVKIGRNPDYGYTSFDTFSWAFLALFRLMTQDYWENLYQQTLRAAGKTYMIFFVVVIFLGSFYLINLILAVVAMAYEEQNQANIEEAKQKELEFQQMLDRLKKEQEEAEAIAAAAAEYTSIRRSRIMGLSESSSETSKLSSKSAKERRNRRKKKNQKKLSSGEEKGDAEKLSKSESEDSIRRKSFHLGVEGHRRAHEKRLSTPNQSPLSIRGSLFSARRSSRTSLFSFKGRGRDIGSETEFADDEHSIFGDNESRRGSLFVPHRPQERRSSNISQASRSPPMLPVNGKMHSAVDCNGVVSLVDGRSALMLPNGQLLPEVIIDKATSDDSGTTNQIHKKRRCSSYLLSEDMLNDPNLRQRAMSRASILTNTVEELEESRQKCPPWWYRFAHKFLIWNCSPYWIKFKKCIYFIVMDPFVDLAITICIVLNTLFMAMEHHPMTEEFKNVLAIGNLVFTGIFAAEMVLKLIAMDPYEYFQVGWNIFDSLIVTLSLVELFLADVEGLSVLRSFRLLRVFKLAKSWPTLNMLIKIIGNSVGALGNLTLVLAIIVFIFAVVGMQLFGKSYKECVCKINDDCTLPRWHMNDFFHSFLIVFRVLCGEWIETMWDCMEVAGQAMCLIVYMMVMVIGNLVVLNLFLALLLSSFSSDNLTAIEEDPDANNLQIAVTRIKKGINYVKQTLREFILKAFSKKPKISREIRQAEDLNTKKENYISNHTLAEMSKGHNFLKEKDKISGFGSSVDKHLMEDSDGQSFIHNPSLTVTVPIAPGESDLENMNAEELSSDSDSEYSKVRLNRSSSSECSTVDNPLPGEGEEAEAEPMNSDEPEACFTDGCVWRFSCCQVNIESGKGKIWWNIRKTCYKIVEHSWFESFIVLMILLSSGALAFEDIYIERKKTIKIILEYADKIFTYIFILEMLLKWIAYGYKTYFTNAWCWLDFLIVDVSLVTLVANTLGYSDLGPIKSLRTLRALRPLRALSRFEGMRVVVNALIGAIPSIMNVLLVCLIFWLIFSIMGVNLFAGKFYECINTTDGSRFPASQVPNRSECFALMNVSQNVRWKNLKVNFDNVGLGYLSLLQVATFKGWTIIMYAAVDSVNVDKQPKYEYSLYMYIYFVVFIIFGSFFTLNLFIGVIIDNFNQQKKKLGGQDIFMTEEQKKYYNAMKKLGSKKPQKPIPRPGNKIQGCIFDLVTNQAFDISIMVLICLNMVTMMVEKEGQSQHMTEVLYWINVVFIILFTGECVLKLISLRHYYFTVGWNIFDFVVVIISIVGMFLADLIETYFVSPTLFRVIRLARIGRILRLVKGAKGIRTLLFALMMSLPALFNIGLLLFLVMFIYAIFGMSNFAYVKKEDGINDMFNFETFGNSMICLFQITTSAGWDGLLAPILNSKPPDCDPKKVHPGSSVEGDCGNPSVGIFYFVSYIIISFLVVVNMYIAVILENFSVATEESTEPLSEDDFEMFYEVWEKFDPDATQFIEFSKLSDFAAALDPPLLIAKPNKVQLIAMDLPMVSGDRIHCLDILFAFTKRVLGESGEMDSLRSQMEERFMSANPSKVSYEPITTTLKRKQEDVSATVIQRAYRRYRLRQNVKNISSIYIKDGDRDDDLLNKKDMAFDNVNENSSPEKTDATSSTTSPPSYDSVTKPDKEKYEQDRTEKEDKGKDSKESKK

Experiments:
Nav 1.7 [1] = molecular target: T1, Nav 1.7 (Homo sapiens (Human), UniProt Q15858); assay: Nav 1.7 in vitro PX assay, PatchXpress whole cell voltage clamp; format: cell-based; settings: HEK 293 cells stably transfected with human Nav1.7; partially inactivated state (20 to 50% inactivation)
Description: Nav 1.7 In Vitro PX Assay
HEK 293 cells stably transfected with human Nav1.7 were recorded in whole cell voltage clamp mode with the PatchXpress automated electrophysiology system (Molecular Devices, LLC, Sunnyvale, Calif.). Compound effects were measured on a partially inactivated state of the sodium channel. Cells were clamped to a holding potential yielding 20 to 50% inactivation. To elicit sodium current, channels were activated by pulsing to −10 mV for 20 msec. This voltage protocol was repeated at a rate of 0.1 Hz throughout the experiment. A single concentration of test compound was applied to cells for a duration of 3 minutes. Peak sodium current was measured at the end of the compound addition period to determine percent inhibition. Three to five cells were tested per concentration, and IC50 curves were fitted to percent inhibition as a function of concentration.

Nav 1.7 [2] = molecular target: T1, Nav 1.7; assay: Nav 1.7 in vitro assay, IonWorks Quattro (IWQ) population patch-clamp; format: cell-based; settings: HEK 293 cells stably transfected with Nav 1.7; 26th pulse to -20 mV
Description: Nav 1.7 and Nav 1.5 In Vitro Assays
HEK 293 cells stably transfected with either Nav 1.7 or with Nav 1.5 were recorded in population patch-clamp mode with the IonWorks® Quattro automated electrophysiology system in accordance with the manufacturer's specifications (Molecular Devices, LLC, Sunnyvale, Calif.). Sodium channel currents were measured in response to a train of depolarizations that induced successively greater inactivation.
Cells were held at −110 mV for three seconds (Nav 1.7) or half a second (Nav 1.5) from a holding voltage of −15 mV, then put through a series of 26 pulses of 150 msec duration to −20 mV at a frequency of 5 Hz. Cells were then left unclamped for a period of 3 to 8 minutes while a single concentration of test compound was added. Cells were then reclamped and put through the same voltage protocol. Current at the end of the 26th pulse to −20 mV was subtracted from the peak current evoked by the 26th pulse to −20 mV to correct for leak current. Percent block was calculated for each concentration in duplicate, and IC50 curves were fitted to percent block as a function of concentration.

Structure (SMILES) | IC50 (Nav 1.7 [1]) | IC50 (Nav 1.7 [2])
O=S(=O)(Nc1nccs1)c1ccc2c(c1)OCCN2c1ccc(C(F)(F)F)cc1C1=CCNCC1 [Example 38, 4-(2-(1,2,3,6-Tetrahydropyridin-4-Yl)-4-(Trifluoromethyl)Phenyl)-N-(Thiazol-2-Yl)-3,4-Dihydro-2H-Benzo[B][1,4]Oxazine-7-Sulfonamide 2,2,2-Trifluoroacetate] | 79.4 nM | 13 nM
N#Cc1ccc(F)cc1N1CCOc2cc(S(=O)(=O)Nc3nccs3)ccc21 [Example 188, 4-(2-Cyano-5-Fluorophenyl)-N-(Thiazol-2-Yl)-3,4-Dihydro-2H-Benzo[B][1,4]Oxazine-7-Sulfonamide] | 1220 nM | 75.3 nM
